This is a selection; strong and weak results do not stand in their true shares. Results filed as inconclusive are left out. The source made the active and inactive calls. Calls follow the shape of the dose curve; as a rule, active = well fitted curve in the direction sought with a large enough effect in the signal ratio (not every such curve was filed as active); inconclusive = small, poorly fitted or top-dose-only effect, or a change in a side signal; inactive = no such curve, though single readings can be large or run the other way; the % refers to the signal ratio.

By UniProt entry, the sequences of proteins in these tests, tags left out. Where a name states a change or a piece, a line headed by the entry shows the natural chain unless it says otherwise.
UniProt P97697: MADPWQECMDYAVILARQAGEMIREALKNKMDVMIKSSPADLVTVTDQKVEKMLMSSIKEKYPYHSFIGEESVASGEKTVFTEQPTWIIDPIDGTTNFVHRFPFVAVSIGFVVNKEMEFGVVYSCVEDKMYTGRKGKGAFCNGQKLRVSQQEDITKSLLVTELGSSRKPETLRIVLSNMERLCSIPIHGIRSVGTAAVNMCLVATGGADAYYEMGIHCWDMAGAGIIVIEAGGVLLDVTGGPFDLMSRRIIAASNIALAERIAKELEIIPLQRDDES

For this test, the target named is Inositol monophosphatase 1 (Rattus norvegicus) (UniProt P97697). The test is described as follows: qHTS Assay for Identifying the Cell-Membrane Permeable IMPase Inhibitors.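 Also: plate controls were DMSO basal wells for no effect and reference inhibitor wells for full effect; higher means more IMPase inhibition seen as more IP1 and lower FRET ratio.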 Conditions: CHO-M1 cells, HTRF TR-FRET ratio; at 46.1 µM (top of the series) unless noted. An excerpt: NCGC IMPase Assay Overview
Lithium has been widely used for the treatment of bipolar disorder. But lithium has a narrow therapeutic index and it can cause side effects such as thirst, weight gain, tremor, polyuria and memory problems. Although the mechanism for lithium action in treatment of bipolar disorder is still not fully understood, inhibition of inositol monophosphatase (IMPase) and the subsequent depletion of the inositol pool in living cells have been implicated as the primary therapeutic benefit of lithium therapy. Therefore, a selective IMPase inhibitor with reduced side effects might be a good drug candidate to replace lithium for the treatment of bipolar disorder. Several IMPase inhibitors have been discovered previously. However, they are not suitable for therapeutic use because of their poor cell membrane penetrability or oral bioavailability; the development of new cell-permeable IMPase inhibitors is needed.
IMPase catalyzes the hydrolysis of inositol-1-phosphate (IP1) to release free inositol. Binding of an agonist to a Gq coupled GPCR results in the activation of PLC, which hydrolyzes the PIP2 to form inositol-1,4,5-trisphosphate (IP3) and diacyl glycerol (DAG). While DAG activates protein kinase C (PKC), IP3 triggers the elevation of intracellular free Ca2+. The IP3 is very rapidly inactivated by hydrolysis to IP2, IP1 and then inositol by a series of enzymes including IMPase. Free inositols are used for synthesis of PI and thus start another inositol cycle.
To identify new cell-permeable IMPase inhibitors, we developed a cell-based IMPase assay in which the cytosolic IP1 is measured by a time-resolved fluorescence resonance energy transfer (TR-FRET) assay. In this assay, an IP1 specific antibody is used to detect the labeled IP1 tracer. When the cell lysate contains the elevated IP1 due to the inhibition of IMPase, the TR-FRET between the labeled antibody and IP1 tracer is disrupted resulting in a reduction in the total signal. Since the TR-FRET is used, this cell-based assay is a homogenous assay without cell wash and medium change that is suitable for assay miniaturization and HTS.
NCGC IMPase Assay Protocol Summary
A Chinese hamster ovary (CHO) cell line stably expressing the M1 receptor (CHO-M1) was obtained from ATCC and maintained in F-12 Kaighn's media (Invitrogen, Carlsbad, CA, 21127) supplemented with 10 % FBS, 100 units/ml penicillin, 100 ug/ml streptomycin and 250 ug/ml geneticin at 37C, 5% CO2 in a humidified atmosphere. Before the assay, aliquots of cells were frozen and stored at -135C. The assay was performed in 1536-well format. Data are reported for both the ratio of the two emission wavelengths, and also for the component 'donor' channel, Em2=620. […] AC50 values were determined from concentration-response data modeled with the standard Hill equation.
IMPase 1536-well assay protocol:
(1) Plate 4 ul/well (2000 cells) of cell suspension from frozen CHO-M1 Cells in white, tissue culture treated 1536-well plates that are cultured at 37C, 5 % CO2 for 16 to 30 hours.
(2) Add 23 nl/well of compound in DMSO solution. The final titration for each compound was between 0.6 nM and 46 uM.
(3) Add 1 ul of carbachol (50 uM in stimulation buffer containing10mM HEPES, 1mM CaCl2, 0.5 mM MgCl2, 4.2 mM KCl, 146 mM NaCl, 5.5 mM glucose, 50mM LiCl, pH 7.4.
(4) Incubation at 37C, 5 % CO2 for 30 min.
(5) Add 1 ul/well of d2-conjugated IP1 (d2-IP1) and 1 ul/well of Eu+ cryptate conjugated anti-IP1 antibody (Eu+-Ab) prepared in the cell lysis buffer, both from the IP-One kit (Cisbio, MA).
(6) Incubate at room temperature for 10 minutes.
(7) Detect the assay plate (Ex = 320, Em1 =665 and Em2 620) in a ViewLux plate reader.
inositol monophosphatase, IMPase, IMPase inhibitor, lithium, bipolar disorder, IP-One, HTRF, qHTS, NIH roadmap, NCGC
Note: In the gene ID and protein GI references for this assay, rat IMPase is referenced instead of hampster as hamster accession numbers were not available.
As to `O=P1(Nc2ccccn2)COc2ccccc2OC1`, the inhibition (IP1 accumulation) is inactive: 20%.
The result for `CN(CCCl)Cc1cc(Cl)c(NC2=NCCN2)c(Cl)c1` reads inactive: 6.19%.
The result for `Clc1n[nH]nc1-c1nn[nH][15n]1` reads inactive: -6.92%.
To `O=P1(Nc2ncccn2)COc2ccccc2OC1` belongs inactive: -11.4%; to `O=P1(Nc2ccc(Br)cn2)COc2ccccc2OC1`, inactive: -1.27%; to `Cc1ccc(OCC(=O)OC2CN3CCC2CC3)cc1` (stereo not drawn), inactive: 0.931% [at 1.84 µM].
For the compound `Cc1nn(-c2ccccc2)c2c1P(=O)(N1CCOCC1)N(C)C(c1ccccc1)=N2` (stereo not drawn), the inhibition (IP1 accumulation) was inactive: -3.95%.
`NC(=O)Nc1ccc([As](=O)(O)O)cc1`: the inhibition (IP1 accumulation) is inactive: 3.69% [at 20.6 µM].
To `CCOP1(=S)c2c(C)nn(CCC#N)c2N=C(c2ccc(F)cc2)N1C` (stereo not drawn) belongs inactive: 4.75%; to `O=[N+]([O-])c1ccc2c(c1)nnn2O`, inactive: -4.85%.
As for `O=P(Nc1nccs1)(c1ccccc1)c1nc2ccccc2s1` (stereo not drawn), the inhibition (IP1 accumulation) was inactive: 16.3%.
To `CCOP1(=S)c2c(C)nn(CCC#N)c2N=C(c2ccccc2F)N1C` (stereo not drawn) belongs inactive: 0.846%; to `Cc1ccc(NCCc2c([N+](=O)[O-])cc([N+](=O)[O-])cc2[N+](=O)[O-])cc1`, inactive: 17.8%; to `CN(C(=O)Cc1ccc(Cl)c(Cl)c1)[C@@H]1CC[C@@]2(CCCO2)C[C@H]1N1CCCC1`, inactive: 3.94%.
The result for `Cc1cccc(OCC(=O)OC2CN3CCC2CC3)c1` (stereo not drawn) reads inactive: 9.31%; that for `Cc1c2c(nc3ccccc13)SC(C(Cl)Cl)C2` (stereo not drawn), inactive: -12.9%; that for `O=C(OC1CN2CCC1CC2)C12CC3CC(CC(C3)C1)C2` (stereo not drawn), inactive: 20.1%.
Take `CCN(CC)C(=S)SC(NC=O)C(Cl)(Cl)Cl` (stereo not drawn): the inhibition (IP1 accumulation) is inactive: -3.89%.
The result for `Cc1ccc2nc3c(c(C)c2c1)CC(C(Cl)Cl)S3` (stereo not drawn) reads inactive: -9.81%.
The result for `Cc1cc(SC(NC(=O)c2ccccc2)C(Cl)(Cl)Cl)nc(C(C)C)n1` (stereo not drawn) reads inactive: -5.71%; that for `CCC(C)N(CC(C)C)C(=S)SC(NC(C)=O)C(Cl)(Cl)Cl` (stereo not drawn), inactive: -6.23%.
Turning to `COP1(=S)c2c(C)nn(CCC#N)c2N=C(c2ccc(F)cc2)N1C` (stereo not drawn), the inhibition (IP1 accumulation) was inactive: -1.12%.
The result for `O=C(COc1ccccc1)OC1CN2CCC1CC2` (stereo not drawn) reads inactive: 16.4%; that for `CC1CCN(C(=O)Oc2c(Cl)cc(Cl)c3cccnc23)CC1`, inactive: 6.29%.
On to `CCc1nc2c(n1)c1c(non1O)c1c2no[n+]1[O-]`, for which the inhibition (IP1 accumulation) is inactive: 14.5%.
As to `CC(=O)N1C2C3N(C(C)=O)C1C1N(C(C)=O)C(C(N1C(C)=O)N3C(C)=O)N2C(C)=O`, the inhibition (IP1 accumulation) was inactive: 2.43%.
Consider `O=[N+]([O-])c1cccc2n[nH]nc12`, for which the inhibition (IP1 accumulation) is inactive: -1.23%.
To `CN(C(=O)Cc1ccccc1)[C@@H]1CC[C@@]2(CCCO2)C[C@H]1N1CCCC1` belongs inactive: 0.521%; to `CCN(N=Nc1nonc1N)c1nonc1N`, inactive: 2.5%.
To `CCOP(=O)(Nc1ccccc1)OCC` belongs inactive: 0.428%; to `Cc1cc(SC(NC(=O)c2ccc(F)cc2)C(Cl)(Cl)Cl)ncn1` (stereo not drawn), inactive: 2.62%; to `Cc1c2non([O-])c-2c(C)[n+](=O)[n+]1[O-]`, inactive: 12.8%.
With `Oc1ccccc1CNc1ccccn1`, the inhibition (IP1 accumulation) was inactive: 7.42%.
The result for `CC(C)CC(=O)NC(Sc1ccc(Cl)cc1)C(Cl)(Cl)Cl` (stereo not drawn) reads inactive: 5.71%.
The result for `CN1CCCC(OC(=O)C(c2ccccc2)c2ccccc2)C1` (stereo not drawn) reads inactive: 13.5%.
The result for `O=P1(Nc2nc3ccc(Cl)cc3s2)COc2ccccc2O1` (stereo not drawn) reads inactive: 4.89%; that for `CCC(=O)N1C2C3N(C(=O)CC)C1C1N(C(=O)CC)C(C(N1C(=O)CC)N3C(=O)CC)N2C(=O)CC`, inactive: -2.05%; that for `COC(=O)c1cc2c(s1)N=C(c1ccccc1)N(C)P2(=O)N1CCOCC1` (stereo not drawn), inactive: 3.88%.
For the compound `CCOC(=O)NC(Sc1ccccc1)C(Cl)(Cl)Cl` (stereo not drawn), the inhibition (IP1 accumulation) is inactive: 5.18%.
The result for `O=C(OC1CN2CCC1CC2)c1cccc(Cl)c1` (stereo not drawn) reads inactive: 15%; that for `O=P(Nc1nccs1)(c1ccccc1)c1ccccc1`, inactive: -2.34%; that for `CC(C)C(=O)NC(Sc1ccccc1)C(Cl)(Cl)Cl` (stereo not drawn), inactive: -4.67%.
In the case of `c1nnnn1CCn1cnnn1`, the inhibition (IP1 accumulation) was inactive: -3.64%.

The record behind these values is PubChem BioAssay AID901 (National Center for Advancing Translational Sciences (NCATS), 2007).
